Source: publication PMC6559944 (Journal of medicinal chemistry, 2019)
Where two headings read alike, the source gives them in different places.

What was measured:
[1] = mice, 25 mg/kg PO, feces collected 24 h
[2] = tested on: Nluc-expressing C. parvum; conditions: for Efficacy (reduction in oocyst shedding / infection), in words / Efficacy in words: IFN-γ KO mice; for Efficacy (reduction in oocyst shedding / infection), in words: oral, 5 days, doses of Table 3

Row | Compound | Fecal concentration from 25 mg/kg dose [1] [µM] | Efficacy (reduction in oocyst shedding / infection), in words [2] | Efficacy in words ([2]; 8 mg/kg QD for 5 days) | Efficacy in words ([2]; 15 mg/kg QD for 5 days) | Efficacy in words ([2]; 30 mg/kg QD for 5 days) | Efficacy in words ([2]; 60 mg/kg QD for 5 days) | Liabilities: toxicity during efficacy study ([2]; IFN-γ KO mice efficacy study)
1 | CC(C)(CO)Cn1nc(-c2ccc3nc(OC4CC4)ccc3c2)c(C(N)=O)c1N [Compound 5, 5-amino-3-(2-cyclopropoxyquinolin-6-yl)-1-(3-hydroxy-2,2-dimethylpropyl)-1H-pyrazole-4-carboxamide] | 41 | significant reduction in oocyst shedding | – | – | – | – | –
2 | CC(C)(CO)Cn1nc(-c2ccc3cc(OC4CC4)ccc3c2)c(C(N)=O)c1N [Compound 6, 5-amino-3-(6-cyclopropoxynaphthalen-2-yl)-1-(3-hydroxy-2,2-dimethylpropyl)-1H-pyrazole-4-carboxamide] | – | significant reduction in oocyst shedding | efficacious | efficacious | efficacious | efficacious | –
3 | CC(C)(CO)n1nc(-c2ccc3nc(OC4CC4)ccc3c2)c(C(N)=O)c1N [Compound 23, 5-amino-3-(2-cyclopropoxyquinolin-6-yl)-1-(1-hydroxy-2-methylpropan-2-yl)-1H-pyrazole-4-carboxamide] | – | significant reduction in oocyst shedding | – | – | – | – | Signs of toxicity during efficacy
4 | C#CCOc1ccc2cc(-c3nn(C(C)(C)C)c(N)c3C(N)=O)ccc2c1 [Compound 26, 5-amino-1-(tert-butyl)-3-(6-(prop-2-yn-1-yloxy)naphthalen-2-yl)-1H-pyrazole-4-carboxamide] | – | Failed efficacy | – | – | – | – | –
